How the values were obtained:
α1aAR [1] = biological target: α1aAR (Homo sapiens, UniProt P35348); test: biochemical
Excerpt: (§1) Reaction conditions were as described above. Curves were fit with […] regression analysis using InPlot software (GraphPad).

α1aAR [2] = biological target: T1, α1aAR (Homo sapiens, UniProt P35348); test: BMY7378 competition binding vs [125I]HEAT in human detrusor membranes, low affinity site; details: two-site fit, n=13, read-out: pKi α1aAR (low pKi) (converted)
T1 construct: from tissue; host or cells: human bladder detrusor smooth muscle membranes
T1 sequence (P35348 1-466): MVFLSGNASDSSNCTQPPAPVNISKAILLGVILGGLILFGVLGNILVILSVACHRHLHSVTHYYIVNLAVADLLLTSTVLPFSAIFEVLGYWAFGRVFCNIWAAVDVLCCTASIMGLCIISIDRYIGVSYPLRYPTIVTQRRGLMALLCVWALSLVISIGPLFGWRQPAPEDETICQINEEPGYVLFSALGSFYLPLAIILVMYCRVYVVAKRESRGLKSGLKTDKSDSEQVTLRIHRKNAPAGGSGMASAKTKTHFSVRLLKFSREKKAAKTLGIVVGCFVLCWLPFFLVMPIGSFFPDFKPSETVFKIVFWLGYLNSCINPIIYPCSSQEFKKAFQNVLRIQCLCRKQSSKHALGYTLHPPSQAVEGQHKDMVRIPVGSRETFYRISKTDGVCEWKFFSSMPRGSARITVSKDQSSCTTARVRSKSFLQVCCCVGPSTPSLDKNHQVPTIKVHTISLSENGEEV
Procedure: Human detrusor and rat bladder membrane preparation. Human detrusor and rat whole bladder was minced over dry ice, and suspended in cold lysis buffer (5 mM Tris HCl and 5 mM EDTA, pH 7.4) with protease inhibitors benzamidine (10 mg/ml), leupeptin (5 mg/ml), and soybean trypsin inhibitor (10 mg/ml) (Sigma Chemical Company; St. Louis, Mo.). A lysate was prepared with a Polytron PT 3000 (Brinkmann; Westbury, N.Y.) at 10,000 rpm for 10 seconds. After pelleting at 40,000×g for 15 minutes (Sorvall SM24 rotor), membranes were suspended in cold resuspension buffer (150 mM NaCl, 50 mM Tris-HCl, 5 mM EDTA, pH 7.4) with protease inhibitors, and kept on ice for immediate use (or stored at −70° C. for later use). Protein content was determined using the bicinchoninic assay (BCA) with bovine serum albumin (BSA) standards (Pierce; Rockford, Ill.).
as §1

- Ki (α1aAR [1]): 15.8 µM
- Ki (α1aAR [2]): 12.6 µM
Compound: COc1ccccc1N1CCN(CCN2C(=O)CC3(CCCC3)CC2=O)CC1 [BMY7378]
